The subject of the data set is EV71. As to the kind of experiment: Enterovirus infection-induced cytopathic effect / cell survival in RD cells with interferon. It counts as cell-based, enterovirus type 71. The protocol:
The RD cells were cultured in a 24-well culture plate at an initial density of 3×10^4 per well with 1 ml of 2% FBS-containing MEM medium per well. The cells were incubated in an incubator (37° C., 5% CO2) overnight. The medium was removed until the cells adhered to the plate. 1 ml of fresh 2% FBS-containing MEM medium was simultaneously added into each well. The RD cells were infected with an EV71 virus strain (M.O.I.=0.1). Different concentrations of compound 1 (final concentrations were 0, 2.5, 25 and 125 μM) and/or IFN-β (final concentrations were 0 and 100 unit/ml) were separately added into different wells. The RD cells were incubated in an incubator (37° C., 5% CO2) for 36 hours, and then their morphology was observed by photography. In addition, 200 μl of culture medium supernatant was collected from each well and stored at −80° C. for conducting the viral plaque test of Example 12.
Background: Cytopathic effects are the visible damage that an infection or toxin causes in cultured cells.

For “IFN-β: interferon-β, a type I interferon used in combination with compound 1”, the Cell survival rate is, setting by setting: (EV71 M.O.I.=0.1, IFN-β 100 unit/ml alone, 36 hours) 33.1%; (no EV71, IFN-β 100 unit/ml, no Compound 1, 36 hours) 87.35%.

Source of the values: US9205073B2, “Method for treating virus infection using derivative of aniline” (CHINA MEDICAL UNIVERSITY, priority 2014, dated 2015).
